Our source for the IC50 values is ChEMBL document CHEMBL2380216, “Design and selection parameters to accelerate the discovery of novel central nervous system positron emission tomography (PET) ligands and their application in the development of a novel phosphodiesterase 2A PET ligand” (J Med Chem, 2013).

Amino acid sequences for entries named in this document (tags omitted). A change or cut given only in a name is not applied to a line headed by its entry.
UniProt Q9HCR9: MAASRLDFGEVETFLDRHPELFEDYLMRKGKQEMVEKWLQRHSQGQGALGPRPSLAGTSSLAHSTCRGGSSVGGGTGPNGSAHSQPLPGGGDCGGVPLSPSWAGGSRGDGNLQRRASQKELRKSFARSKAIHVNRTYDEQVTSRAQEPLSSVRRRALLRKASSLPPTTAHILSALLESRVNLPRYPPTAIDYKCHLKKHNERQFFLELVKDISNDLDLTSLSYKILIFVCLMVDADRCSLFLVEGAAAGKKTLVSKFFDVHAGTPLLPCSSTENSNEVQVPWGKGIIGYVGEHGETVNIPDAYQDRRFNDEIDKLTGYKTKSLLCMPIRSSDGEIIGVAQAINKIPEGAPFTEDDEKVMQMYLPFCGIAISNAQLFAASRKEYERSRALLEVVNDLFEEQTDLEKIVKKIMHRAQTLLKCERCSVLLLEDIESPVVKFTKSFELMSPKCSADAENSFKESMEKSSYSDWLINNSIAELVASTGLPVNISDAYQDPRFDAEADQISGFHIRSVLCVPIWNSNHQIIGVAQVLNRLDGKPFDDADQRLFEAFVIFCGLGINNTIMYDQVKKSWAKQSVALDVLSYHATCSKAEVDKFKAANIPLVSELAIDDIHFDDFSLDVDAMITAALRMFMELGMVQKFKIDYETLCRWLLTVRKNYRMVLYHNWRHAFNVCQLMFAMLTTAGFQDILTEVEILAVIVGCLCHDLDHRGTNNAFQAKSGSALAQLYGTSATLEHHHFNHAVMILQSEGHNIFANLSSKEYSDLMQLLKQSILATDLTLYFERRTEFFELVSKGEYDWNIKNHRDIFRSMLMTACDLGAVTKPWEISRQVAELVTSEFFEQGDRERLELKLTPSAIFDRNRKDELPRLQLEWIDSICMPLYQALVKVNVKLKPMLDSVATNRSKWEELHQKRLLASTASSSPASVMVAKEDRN

The target in this experiment is Dual 3',5'-cyclic-AMP and -GMP phosphodiesterase 11A (Homo sapiens, UniProt Q9HCR9). Description: Inhibition of PDE11 (unknown origin).

SMILES strings stand for the structures.

By IC50 is commonly meant the concentration at which inhibition is half-maximal. `Cc1nc(-c2cnn(C)c2-c2ccc(C(F)(F)F)cc2)c2c(N3CC(F)C3)ncnn12`: the concentration for half-maximal inhibition (IC50) is over 10 µM.
